Target: Insulin receptor (Homo sapiens, UniProt P06213)

Amino acid sequences for entries named in this document (tags omitted). Residues count along the entry.
UniProt P06213, 28-758 limits assumed: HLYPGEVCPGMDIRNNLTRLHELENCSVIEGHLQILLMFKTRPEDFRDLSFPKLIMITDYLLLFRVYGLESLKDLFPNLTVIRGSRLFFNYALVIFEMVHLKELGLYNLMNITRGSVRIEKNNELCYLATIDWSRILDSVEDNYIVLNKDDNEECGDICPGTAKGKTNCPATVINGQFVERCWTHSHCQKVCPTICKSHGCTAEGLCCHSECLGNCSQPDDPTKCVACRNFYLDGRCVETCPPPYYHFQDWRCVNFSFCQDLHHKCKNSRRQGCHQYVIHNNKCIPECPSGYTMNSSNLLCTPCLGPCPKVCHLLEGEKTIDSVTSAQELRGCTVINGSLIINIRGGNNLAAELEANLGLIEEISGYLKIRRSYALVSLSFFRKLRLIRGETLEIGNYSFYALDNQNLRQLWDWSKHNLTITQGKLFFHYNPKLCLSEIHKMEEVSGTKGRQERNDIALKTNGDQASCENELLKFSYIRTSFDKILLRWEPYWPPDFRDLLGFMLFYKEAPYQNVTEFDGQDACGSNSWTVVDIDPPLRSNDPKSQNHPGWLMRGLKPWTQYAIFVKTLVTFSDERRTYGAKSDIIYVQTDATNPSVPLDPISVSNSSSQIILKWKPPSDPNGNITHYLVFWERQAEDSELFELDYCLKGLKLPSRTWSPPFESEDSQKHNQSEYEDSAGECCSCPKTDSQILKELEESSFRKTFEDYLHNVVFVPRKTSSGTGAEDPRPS
UniProt P06213, 763-1382 limits assumed: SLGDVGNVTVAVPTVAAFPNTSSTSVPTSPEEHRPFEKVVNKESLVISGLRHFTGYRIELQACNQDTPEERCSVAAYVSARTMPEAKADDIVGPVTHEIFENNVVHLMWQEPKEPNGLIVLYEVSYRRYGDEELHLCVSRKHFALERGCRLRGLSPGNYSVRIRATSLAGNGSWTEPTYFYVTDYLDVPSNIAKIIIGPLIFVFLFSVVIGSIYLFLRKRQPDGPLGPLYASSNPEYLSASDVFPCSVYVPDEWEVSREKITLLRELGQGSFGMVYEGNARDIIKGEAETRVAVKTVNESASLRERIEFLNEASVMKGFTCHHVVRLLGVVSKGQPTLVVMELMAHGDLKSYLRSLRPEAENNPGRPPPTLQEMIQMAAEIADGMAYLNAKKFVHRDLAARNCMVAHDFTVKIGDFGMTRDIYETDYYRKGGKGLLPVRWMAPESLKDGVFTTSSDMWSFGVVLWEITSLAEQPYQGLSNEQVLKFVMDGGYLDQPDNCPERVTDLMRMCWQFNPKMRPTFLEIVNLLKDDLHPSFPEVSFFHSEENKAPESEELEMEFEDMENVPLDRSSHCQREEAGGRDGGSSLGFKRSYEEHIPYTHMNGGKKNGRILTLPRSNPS

`CC1(C)c2cc(C3CCN(C4COC4)CC3)ccc2C(=O)c2c1[nH]c1cc(C#N)ccc21` was tested. Which IC50 did it give?
The IC50 was 310 nM.

Reference: ChEMBL document CHEMBL1777813, “Discovery of novel tetracyclic compounds as anaplastic lymphoma kinase inhibitors” (Bioorg Med Chem Lett, 2011)
